# Results published in ChEMBL document CHEMBL3526001, “Attenuation of intestinal absorption by major efflux transporters: quantitative tools and strategies using a Caco-2 model” (Drug Metab Dispos, 2011).
# Columns and labels:
# Intestine = test: Ratio of intestine AUC in po dosed mdr1 knock out mouse to intestine AUC in po dosed wild type mouse; format: ADME, organism-based; conditions: in vivo
# MDCK = test: Efflux ratio of permeability from basolateral to apical over apical to basolateral side of MDCK cells expressing MDR1; format: ADME, cell-based, Canis lupus familiaris; conditions: dog
# P-gp = test: in vitro
Structure (SMILES),Ratio AUC (Intestine),Ratio (MDCK),"efflux ratio at 2 h, 10 µM (P-gp)"
O=C(O)c1cn(C2CC2)c2cc(N3CCNCC3)c(F)cc2c1=O [CIPROFLOXACIN],1.6,–,–
NS(=O)(=O)c1cc(C(=O)O)c(NCc2ccco2)cc1Cl [FUROSEMIDE],–,3.1,–
CC(=O)O[C@H]1C(=O)[C@@]2(C)[C@H]([C@H](OC(=O)c3ccccc3)[C@]3(O)C[C@H](OC(=O)[C@H](O)[C@@H](NC(=O)c4ccccc4)c4ccccc4)C(C)=C1C3(C)C)[C@]1(OC(C)=O)CO[C@@H]1C[C@@H]2O [PACLITAXEL],17,–,1.3
